Assays:
GDH = GDH (Homo sapiens, UniProt P00367); experiment: GDH inhibition IC50; format: biochemical
A 549 lung cancer cells = experiment: Inhibition of A549 lung cancer cells; format: cell-based
Description: The molecular structure of specific compounds is described as follows: […]

Amino acid sequences for entries named in this document (tags omitted). Residues count along the entry.
UniProt P00367, 54-558: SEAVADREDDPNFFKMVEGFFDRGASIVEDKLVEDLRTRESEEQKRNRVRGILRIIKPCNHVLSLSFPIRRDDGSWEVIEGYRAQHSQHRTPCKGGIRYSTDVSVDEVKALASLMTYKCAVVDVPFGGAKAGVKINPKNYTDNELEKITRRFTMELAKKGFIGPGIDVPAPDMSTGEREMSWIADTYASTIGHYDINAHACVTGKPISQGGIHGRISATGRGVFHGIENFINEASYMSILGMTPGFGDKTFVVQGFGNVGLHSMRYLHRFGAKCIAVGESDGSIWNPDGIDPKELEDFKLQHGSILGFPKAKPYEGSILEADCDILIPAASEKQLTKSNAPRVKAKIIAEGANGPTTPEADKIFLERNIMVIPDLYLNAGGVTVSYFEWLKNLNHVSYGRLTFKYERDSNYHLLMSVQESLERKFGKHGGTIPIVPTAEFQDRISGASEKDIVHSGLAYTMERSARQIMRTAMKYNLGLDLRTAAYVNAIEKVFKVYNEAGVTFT

Question: Which results are given for `Nc1nnc(CCSCCc2nnc(NC(=O)Cc3ccccc3)s2)s1`?
Answer: IC50 (GDH): > 10 µM; A549 Max-INH (A 549 lung cancer cells): 50%; IC50 (A 549 lung cancer cells; Homo sapiens, A549, read-out: A549 IC50): 9 µM

From patent US10975048B2, “Composition of 1,3,4-selenadiazole containing compounds with pharmacological activity” (HANGZHOU JENNIFER BIOTECH CO., LTD, priority 2015, dated 2021)
